Results from ChEMBL document CHEMBL4619802, “Discovery and Characterization of Pure RhlR Antagonists against Pseudomonas aeruginosa Infections” (J Med Chem, 2020).

What was measured:
[1] = biological target: T1, HTH-type quorum-sensing regulator RhlR (Pseudomonas aeruginosa (strain ATCC 15692 / PAO1 / 1C / PRS 101 / LMG12228)) (UniProt P54292); assay: Antagonist activity at Pseudomonas aeruginosa RhlR expressed in Escherichia coli DH5alpha assessed as relative protein activity at 100 uM incubated for 1.5 hrs in presence of N-butyryl-L-homoserine lactone by luminescence reporter gene assay relative to control; parameters: scale not given: the % may be the effect or the level left
T1 sequence (whole entry): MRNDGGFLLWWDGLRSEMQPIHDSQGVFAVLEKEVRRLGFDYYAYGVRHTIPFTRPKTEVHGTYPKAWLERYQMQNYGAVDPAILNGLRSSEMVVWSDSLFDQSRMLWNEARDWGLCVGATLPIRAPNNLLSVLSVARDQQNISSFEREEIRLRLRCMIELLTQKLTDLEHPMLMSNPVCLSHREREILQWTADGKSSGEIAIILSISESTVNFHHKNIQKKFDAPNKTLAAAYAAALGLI
Procedure, shortened: (§1)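 E. coli DH5α sdiA mutant carrying RhlR and rhlA::lacZ plasmids, at OD595 0.3 in LB. Compound given with BHL (10 µM per footnote) and 0.4% arabinose, 37 °C for 1.5 h. Relative RhlR activity is β-galactosidase luminescence over OD595, compared against DMSO control.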

[2] = biological target: T1, HTH-type quorum-sensing regulator RhlR (Pseudomonas aeruginosa (strain ATCC 15692 / PAO1 / 1C / PRS 101 / LMG12228)); assay: Agonist activity at Pseudomonas aeruginosa RhlR expressed in Escherichia coli DH5alpha assessed as relative protein activity at 100 uM incubated for 1.5 hrs by luminescence reporter gene assay relative to control
Procedure, shortened: (§2)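 E. coli DH5α sdiA mutant carrying pJN105R (RhlR) and pSC11 (rhlA::lacZ). Grown 2 h at 37 °C in LB with gentamicin and ampicillin to OD595 0.3, then given compound alone plus 0.4% arabinose, 37 °C for 1.5 h. β-galactosidase luminescence divided by OD595 gives relative RhlR activity. P values versus DMSO control.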

[3] = biological target: T1, HTH-type quorum-sensing regulator RhlR (Pseudomonas aeruginosa (strain ATCC 15692 / PAO1 / 1C / PRS 101 / LMG12228)); assay: Antagonist activity at Pseudomonas aeruginosa RhlR expressed in Escherichia coli DH5alpha assessed as relative protein activity at 10 uM incubated for 1.5 hrs in presence of N-butyryl-L-homoserine lactone by luminescence reporter gene assay relative to control; parameters: scale not given: the % may be the effect or the level left; procedure, shortened: as §1
[4] = biological target: T1, HTH-type quorum-sensing regulator RhlR (Pseudomonas aeruginosa (strain ATCC 15692 / PAO1 / 1C / PRS 101 / LMG12228)); assay: Agonist activity at Pseudomonas aeruginosa RhlR expressed in Escherichia coli DH5alpha assessed as relative protein activity at 1000 uM incubated for 1.5 hrs by luminescence reporter gene assay relative to control; procedure, shortened: as §2
[5] = biological target: T1, HTH-type quorum-sensing regulator RhlR (Pseudomonas aeruginosa (strain ATCC 15692 / PAO1 / 1C / PRS 101 / LMG12228)); assay: Modulation of RhlR in Pseudomonas aeruginosa assessed as reduction in biofilm formation at 10 uM incubated for 48 hrs under dynamic condition by measuring biofilm volume by 4',6-diamidino-2-phenylindole staining based confocal laser scanning microscopy
Procedure, shortened: (§3)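 Drip-flow reactor with glass slides, fed continuously at 0.3 mL/min with AB medium containing 5% P. aeruginosa (OD595 1.0) plus compound, 37 °C for 48 h. Unattached cells removed with PBS. Biofilm stained with DAPI for 10 min, imaged by CLSM Z-stacks (ex 350/em 470 nm, 20× objective). Volume and thickness obtained with Comstat2.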

[6] = biological target: T1, HTH-type quorum-sensing regulator RhlR (Pseudomonas aeruginosa (strain ATCC 15692 / PAO1 / 1C / PRS 101 / LMG12228)); assay: Modulation of RhlR in Pseudomonas aeruginosa assessed as reduction in biofilm formation at 10 uM incubated for 48 hrs under dynamic condition by measuring biofilm thickness by 4',6-diamidino-2-phenylindole staining based confocal laser scanning microscopy; procedure, shortened: as §3

| Activity [2] [%] | Structure (SMILES) | Activity [1] [%] | Activity [3] [%] | Activity [4] [%] | Activity [5] [um3/um2] | Activity [6] [µm] |
| --- | --- | --- | --- | --- | --- | --- |
| 3 | CCCCC[C@H](O)CC(=O)CCc1ccc(O)c(OC)c1 [GINGEROL] | 75 |  | 5 | 18.7 | 20.4 |
| 4 | CCCCCC(O)CC(=O)CCc1ccc(O)c(OC)c1 (configuration not stated) |  |  |  |  |  |

| Structure (SMILES) | Activity [2] [%] | Activity [1] [%] | Activity [3] [%] | Activity [4] [%] | Activity [5] [um3/um2] | Activity [6] [µm] |
| --- | --- | --- | --- | --- | --- | --- |
| CCCC(=O)C#Cc1ccc(F)c(F)c1 | 4 | 12 | 31 | 4 | 11.3 | 19.5 |
